Yeast mating assay 1: variants of the scFv Ab-14

Source: Engelhart et al. 2022 (doi:10.1038/s41597-022-01779-4), MIT Lincoln Laboratory and A-Alpha Bio; data file from the FLAb repository.

All variants were tested on one target, the spike HR2 peptide PDVDLGDISGINAS (SARS-CoV-2).

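Phage display of a naive human antibody library on the peptide gave the parent. Library AAYL50 holds single substitutions and randomly drawn double and triple substitutions in the CDRs. Affinity was read by AlphaSeq, a pooled yeast mating assay with surface-displayed partners. Mating (16 h, 30 °C) was followed by selection of diploids and sequencing of their barcodes. The ratio of observed to expected reads was calibrated, replicate by replicate, on BCL2-family standards whose Kd was known from biolayer interferometry. Each pool was mated in three replicate cultures.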

Parent scFv Ab-14: VH joined to VL by a (GGGGS)3 linker. Changes lie in the light chain CDRs alone.
VH: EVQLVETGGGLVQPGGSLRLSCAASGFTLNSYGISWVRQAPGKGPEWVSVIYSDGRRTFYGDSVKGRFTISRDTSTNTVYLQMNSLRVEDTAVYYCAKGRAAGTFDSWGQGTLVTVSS
VL: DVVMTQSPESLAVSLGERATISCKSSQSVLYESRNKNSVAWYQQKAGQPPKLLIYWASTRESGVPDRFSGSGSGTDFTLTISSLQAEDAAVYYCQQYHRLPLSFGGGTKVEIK

Each variant is given by its three light chain CDRs, as the data file delimits them; those of the parent are KSSQSVLYESRNKNSVA, WASTRES, QQYHRLPLS.
Affinities are written as log10 Kd with Kd in nM; a lower number is a better binder.
A mean of the replicates is given; it leaves out those without a signal.
Where no diploid with the target was found in that replicate, the entry reads "n.d.": below detection, most likely a poor binder, though not proof of it.
Empty control strains, which show no peptide, gave a signal in 18% of pairings with library AAYL50; the median was 4.19 and 95% of these signals were weaker than 2.99. No background was subtracted. For each scFv, signals with the empty controls are counted beside the result, with their mean in brackets.
For reference, the parent read 0.65 as the reference entry and 1.68 as a member of this library.

CDR-L1	CDR-L2	CDR-L3	log10 Kd, replicates	mean, log10 nM	empty controls
NSSQSVLYESRYKNSVA	WASTRES	QQYHRLPLS	1.99 / 2.20 / 2.09	2.09	2 of 9 (4.65)
KSSQSVVYESRNKNSVA	CASTRES	QQYHLLPLS	2.16 / 1.77 / 1.84	1.92	0 of 9
KSSQSVLLESRGKNLVA	WASTRES	QQYHRLPLS	n.d. / n.d. / n.d.	n.d.	0 of 9
KSSQSVLYESRNKHAVA	WASTRES	QQYHRLPLV	0.57 / 0.78 / 0.63	0.66	1 of 9 (3.84)
KSSQSVLYESRTKNSVA	IASTRES	QQYHRLPLL	n.d. / 5.01 / n.d.	5.01	3 of 9 (4.27)
KSSQSVLYMSMNKNSVA	WASTRES	QKYHRLPLS	2.69 / 2.68 / 2.96	2.78	1 of 9 (4.27)
KSFQLVLYESRNKNSVA	WASTREA	QQYHRLPLS	n.d. / n.d. / n.d.	n.d.	1 of 9 (2.88)
WSSQSVLYESRNKNSVA	FASTEES	QQYHRLPLS	n.d. / n.d. / n.d.	n.d.	0 of 9
KSSQSVLYESRNKNYVA	WASTREL	QVYHRLPLS	n.d. / n.d. / n.d.	n.d.	0 of 9
KSSQSVLYESRNKNFVA	WASFRES	QQYHRLPES	4.56 / 5.06 / 4.87	4.83	1 of 9 (3.68)
KSSQSVLYESRNKQSVA	WASLRES	QQYHRLPLS	1.24 / 1.23 / 1.49	1.32	0 of 9
KSEQSVLYESRNKNSVA	DASTRES	PQYHRLPLS	n.d. / 3.57 / n.d.	3.57	2 of 9 (4.76)
KSSQSVLYESRNKNCWA	WASTRES	QQYHRLTLS	n.d. / n.d. / n.d.	n.d.	2 of 9 (2.69)
KSSQSVLYDSRNKNSVA	WESTRES	EQYHRLPLS	1.69 / 1.67 / 1.68	1.68	3 of 9 (3.71)
KSSQSVLYESRNKIYVA	WASTRES	QQYHRLPLS	n.d. / 3.16 / n.d.	3.16	2 of 9 (3.31)
KSSQSVLYESRNKNSVA	NHSIRES	QQYHRLPLS	-0.06 / 0.22 / 0.07	0.08	4 of 9 (4.23)
KSSQSVLYESRNKNTVA	WASTRES	QQYHRNPLY	4.15 / 3.07 / 3.28	3.50	4 of 9 (4.69)
KSQQSVLLESRNKNSVA	WASTRES	QQYHGLPLS	0.62 / 0.82 / 0.68	0.71	2 of 9 (4.97)
KSSQSHLYESRNKFSVA	WASTRES	QQPHRLPLS	n.d. / n.d. / n.d.	n.d.	0 of 9
KSSQSVLYESRNKNSVA	WASTDES	QTYVRLPLS	n.d. / n.d. / n.d.	n.d.	0 of 9
KSSQMVLYESRNKNSYA	WASTRES	QQYHRKPLS	n.d. / 4.22 / n.d.	4.22	3 of 9 (5.16)
KLSQSVLYEWRNKNSVA	WASTRES	QQYHRLPLS	0.38 / 0.76 / 0.66	0.60	1 of 9 (5.32)
KSSQSCLYEERNKNYVA	WASTRES	QQYHRLPLS	n.d. / 3.47 / 1.79	2.63	0 of 9
CSSQSVLRESRNKNSVA	WESTRES	QQYHRLPLS	n.d. / n.d. / n.d.	n.d.	0 of 9
KSSQSVLYSSRNQNSVA	WASTREG	QQYHRLPLS	0.92 / 1.07 / 0.83	0.94	0 of 9
KSFQSVLYESRNQNSVA	WASTRES	QDYHRLPLS	1.39 / 1.43 / 1.74	1.52	4 of 9 (4.41)
KSSQSVLYESRNKNSVA	WATKRES	QQYTRLPLS	2.62 / 2.39 / 2.44	2.48	4 of 9 (4.02)
KSSWSVLYESRNKNSVA	WASTYES	WQYHRLPLS	n.d. / n.d. / n.d.	n.d.	0 of 9
KMSQSVLYEKRNKNSVA	WASTRES	QQYFRLPLS	1.64 / 1.76 / 1.50	1.63	1 of 9 (3.39)
KSSQSVLYESRNKGSVA	WASTRES	AQYHRLPLS	4.17 / 2.93 / 3.11	3.41	4 of 9 (4.12)
KSSQSCLYESRNKNSVA	WASTRES	QQYETLPLS	1.78 / 1.83 / 1.89	1.83	4 of 9 (4.51)
KSSQSVLYTSRNKNSKA	WASTRES	QQYHRLLLS	n.d. / n.d. / n.d.	n.d.	0 of 9
KSSQSVLYEIRNKKSVM	WASTRES	QQYHRLPLS	5.09 / n.d. / n.d.	5.09	3 of 9 (4.77)
KSSQSVLYLSRNKNSVA	WYSYRES	QQYHRLPLS	n.d. / n.d. / n.d.	n.d.	0 of 9
KSSQSVLYESRQKKSVA	WASTRES	QQYHRLPVS	3.57 / 2.92 / 3.34	3.27	1 of 9 (4.90)
KSSQSVLYESRNVNSVA	WASTRES	QQYHRIPCS	2.08 / 2.28 / 2.08	2.15	1 of 9 (4.65)
KSLQSVLYESRNKNSVY	WASTREA	QQYHRLPLS	n.d. / n.d. / n.d.	n.d.	1 of 9 (3.00)
KSSQSVTYEERNKNSVA	WAGTRES	QQYHRLPLS	1.41 / 1.90 / 1.47	1.59	0 of 9
NSSQSVLYESRNKDSVA	WASTREP	QQYHRLPLS	2.08 / 1.40 / 1.66	1.71	0 of 9
ESSQSVLYESRNKNSMA	WAMTRES	QQYHRLPLS	n.d. / n.d. / n.d.	n.d.	0 of 9
KSSQSVNYESFNKASVA	WASTRES	QQYHRLPLS	1.57 / 1.76 / 1.87	1.73	0 of 9
KSSGSVLYEYRNKNSVA	WASTRES	QQYHRLPNS	n.d. / 3.94 / n.d.	3.94	3 of 9 (3.85)
KSYQSHLYESRNKNSVA	WASWRES	QQYHRLPLS	1.33 / 1.14 / 1.71	1.39	1 of 9 (3.31)

Top 3 of the variants detected in all replicates, tightest first:

CDR-L1	CDR-L2	CDR-L3	log10 Kd, replicates	mean, log10 nM	empty controls
KSSQSVLYESRNKNSVA	NHSIRES	QQYHRLPLS	-0.06 / 0.22 / 0.07	0.08	4 of 9 (4.23)
KLSQSVLYEWRNKNSVA	WASTRES	QQYHRLPLS	0.38 / 0.76 / 0.66	0.60	1 of 9 (5.32)
KSSQSVLYESRNKHAVA	WASTRES	QQYHRLPLV	0.57 / 0.78 / 0.63	0.66	1 of 9 (3.84)